Structures are written as SMILES. Only a part is listed here, and it is no random draw. Activity calls are given as the source filed them.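 Rule for the calls: active = inhibition at least 30% at 10 µM, raw YFP signal under a set limit, fluorescence ratio 0.5 to 1.5; inactive = the rest.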

Chains of the proteins cited; added tags and fusions are not shown. Lines headed by an entry give the natural chain unless they say otherwise; changes in a name come on top.
UniProt Q9P0U3: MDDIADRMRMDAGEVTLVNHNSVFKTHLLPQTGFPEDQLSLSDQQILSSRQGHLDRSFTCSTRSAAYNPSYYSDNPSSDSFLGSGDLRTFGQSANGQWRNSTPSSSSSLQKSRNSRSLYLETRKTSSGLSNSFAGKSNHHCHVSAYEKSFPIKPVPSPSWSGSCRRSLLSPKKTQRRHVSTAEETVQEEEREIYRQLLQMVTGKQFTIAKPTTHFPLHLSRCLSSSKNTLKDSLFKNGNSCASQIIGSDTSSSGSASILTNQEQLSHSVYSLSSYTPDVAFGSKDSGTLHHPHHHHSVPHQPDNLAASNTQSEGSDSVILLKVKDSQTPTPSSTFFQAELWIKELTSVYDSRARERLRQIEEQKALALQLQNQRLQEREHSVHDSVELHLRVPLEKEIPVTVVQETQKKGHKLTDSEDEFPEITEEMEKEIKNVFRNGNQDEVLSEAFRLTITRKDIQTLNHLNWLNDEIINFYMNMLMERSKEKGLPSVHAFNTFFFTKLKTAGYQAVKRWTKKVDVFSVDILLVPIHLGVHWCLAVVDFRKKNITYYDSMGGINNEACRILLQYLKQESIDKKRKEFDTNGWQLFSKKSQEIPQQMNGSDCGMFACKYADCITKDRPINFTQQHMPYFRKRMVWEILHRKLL

The target of the assay is Sentrin-specific protease 1 (Homo sapiens) (UniProt Q9P0U3). Put plainly: blockers of SENP1 SUMO protease activity – biochemical, FRET, uHTS, primary screen (AID 624204).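 Note: 0% = enzyme with DMSO and 100% = no enzyme wells.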 As to conditions: recombinant SENP1 catalytic domain, CyPet-SUMO1-YPet FRET cleavage; at 10 µM; active compounds read high. In a few lines:
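material = recombinant human SENP1 catalytic domain, His6-tagged | quantity = 20 pM enzyme | reagent = 25 nM SUMO1 FRET substrate | compound dosing = 10 µM single point, 0.5% DMSO | timing = 50 min enzyme reaction, room temperature, light-protected | detection = FRET, CFP and YFP emission | control set = no-enzyme low, enzyme-DMSO high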
As for `O=[N+]([O-])c1ccc(Nc2ccc(Oc3ccc([N+](=O)[O-])cc3[N+](=O)[O-])cc2)c([N+](=O)[O-])c1`, the inhibition was inactive: 3.79%.
In the case of `O=P(Nc1ccccn1)(c1cccc2ccccc12)c1cccc2ccccc12`, the inhibition is inactive: 1.79%.
`Cc1cc(SC(NC=O)C(Cl)(Cl)Cl)ncn1` (stereo unspecified): the inhibition is inactive: -0.938%.
The value for `CCOC(=O)Nc1cccc([As](=O)(O)O)c1` was inactive: 1.2%.
The value for `Cc1ccc2nc3c(c(C)c2c1)CC(C(Cl)Cl)S3` (stereo unspecified) was inactive: -1.82%.
The value for `[N-]=[N+]=NC1CCCCC1NC(=O)c1cc([N+](=O)[O-])cc([N+](=O)[O-])c1` (stereo unspecified) was inactive: 0.707%; that for `Cc1ccc(OP(=O)(Nc2ccc([N+](=O)[O-])cn2)Oc2ccc(C)cc2)cc1` was inactive: 1.75%; that for `COc1cc(C(=O)NCC2(N3CCOCC3)CCCCC2)ccc1OCC(C)C` was inactive: 0.676%.
For the compound `O=[N+]([O-])c1ccc(-c2cc([N+](=O)[O-])c(O)c([N+](=O)[O-])c2)cc1`, the inhibition is inactive: 7.67%.
The value for `C[As](=O)(O)c1cccc(C(=O)O)c1` was inactive: 2.22%.
The value for `O=[As](O)(c1ccc(O)cc1)c1ccccc1O` was inactive: -0.245%; that for `O=[N+]([O-])c1cc([N+](=O)[O-])c(-c2ccn[nH]2)s1` was inactive: 2.75%; that for `O=C(OC1CN2CCC1CC2)c1cccc2[nH]cnc12` (stereo unspecified) was inactive: -0.399%.
Regarding `CCN(CC)C(=S)SC(NC=O)C(Cl)(Cl)Cl` (stereo unspecified), the inhibition is inactive: -0.295%.
The value for `CC(C)NC(=O)NP(=O)(Oc1ccccc1)Oc1ccccc1` was inactive: 0.257%; that for `CC(C)c1ccc(OP(=O)(Nc2ccccn2)Oc2ccccc2F)cc1` (stereo unspecified) was inactive: 0.586%.
`COC(=O)C1(C)COP(=O)(N2CCCCCC2)OC1` (stereo unspecified): the inhibition was inactive: 0.32%.
The value for `ClCCSc1nnc(-c2cccnc2)o1` was inactive: 1.64%.
The value for `COc1cc(I)ccc1[As](=O)(O)O` was inactive: 0.463%.
The value for `COc1ccc2nc(NP(=O)(c3ccccc3)c3ccccc3)sc2c1` was inactive: -1.05%; that for `O=P1(N(CCCl)CCCl)OCCCN1CCCl` (stereo unspecified) was inactive: 0.278%; that for `O=P1(N(CCCl)CCCl)Nc2ccccc2N1` was inactive: 19.3%.
As for `Cc1cc(=O)[nH]c(N[N+](=O)[O-])n1`, the inhibition was inactive: 1.06%.
The value for `O=C(OC1CN2CCC1CC2)C12CC3CC(CC(C3)C1)C2` (stereo unspecified) was inactive: -1.51%.
The value for `Cc1c2c(nc3ccccc13)SC(C(Cl)Cl)C2` (stereo unspecified) was inactive: -2.13%; that for `COc1ccc(N/C(=N/P(=O)(N2CCOCC2)N2CCOCC2)N2CCOCC2)cc1` was inactive: 1.29%.
The value for `O=[N+]([O-])c1cc(Oc2ccc([N+](=O)[O-])cc2C(F)(F)F)cc([N+](=O)[O-])c1` was inactive: -0.846%; that for `O=[As](O)(c1cccc(O)c1)c1cccc(O)c1` was inactive: 2.65%; that for `Cc1cccc(OCC(=O)OC2CN3CCC2CC3)c1` (stereo unspecified) was inactive: 0.98%.
As for `CS(=O)(=O)c1ccc(Cl)c(NC(=O)COC(=O)C(O)(c2ccccc2)c2ccccc2)c1`, the inhibition is inactive: 1.53%.
`COc1cc(C(=O)NCC2(N3CCOCC3)CCCCC2)cc(Cl)c1OC(C)C`: the inhibition was inactive: 0.867%.
The value for `O=[As](O)(O)c1cccnc1` was inactive: 1.29%; that for `O=C(OC1CN2CCC1CC2)c1ccc(Cl)cc1` (stereo unspecified) was inactive: 4.22%.
Turning to `CCOP(=O)(Nc1cccc2ccccc12)OCC`, the inhibition is inactive: -0.786%.
The value for `COc1cc(C2NCCC3(OCCO3)C2(C)C)cc(OC)c1OC` (stereo unspecified) was inactive: -3.56%.
The value for `CCCOP(=S)(Nc1nc(N)cc(=O)[nH]1)OCCC` was inactive: -0.654%; that for `Nc1cccc2c([As](=O)(O)O)cccc12` was active: 34.1%; that for `Cc1ccc(NCCc2c([N+](=O)[O-])cc([N+](=O)[O-])cc2[N+](=O)[O-])cc1` was inactive: 3.42%.
As to `Nc1ccccc1[As](=O)(O)c1ccccc1`, the inhibition is inactive: 0.414%.
The value for `O=C(O)COc1ccc([As](=O)(O)O)cc1[N+](=O)[O-]` was inactive: -0.111%; that for `CS(=O)(=O)c1cc([N+](=O)[O-])c2no[n+]([O-])c2c1` was inactive: -35.4%.
The value for `O=P(Nc1nccs1)(c1ccccc1)c1nc2ccccc2s1` (stereo unspecified) was inactive: 0.413%; that for `O=P(Nc1nccs1)(Oc1ccccc1)Oc1ccccc1` was inactive: 0.816%.
Regarding `CCOP1(=S)c2c(C)nn(CCC#N)c2N=C(c2ccccc2F)N1C` (stereo unspecified), the inhibition is inactive: -1.9%.
The value for `CN(C(=O)Cc1ccc(Cl)c(Cl)c1)[C@H]1CC[C@@]2(CCCO2)C[C@@H]1N1CCCC1` was inactive: 2.92%.
The value for `CN(C)C(=O)c1cc([N+](=O)[O-])cc2c1-c1c(cc([N+](=O)[O-])cc1[N+](=O)[O-])C2=O` was inactive: 7.58%; that for `O=[N+]([O-])c1ccc2c(c1)nnn2O` was inactive: 3.08%.
The value for `CCOP1(=S)c2c(C)nn(CCC#N)c2N=C(c2ccc(F)cc2)N1C` (stereo unspecified) was inactive: 2.78%; that for `CN(C(=O)Cc1ccccc1)[C@@H]1CC[C@]2(CCCO2)C[C@H]1N1CCCC1` was inactive: -16.1%; that for `N#CCCN(C(=O)COC(=O)C(O)(c1ccccc1)c1ccccc1)c1ccc(F)cc1` was inactive: 0.564%.
`NC(=O)Nc1ccc([As](=O)(O)O)cc1`: the inhibition is inactive: 2.65%.
Consider `CCCC1OP(=O)(Nc2ccccc2)OCC1CC` (stereo unspecified), for which the inhibition was inactive: -0.763%.
The value for `O=C(/C=C/c1ccccc1)OC1CN2CCC1CC2` (stereo unspecified) was inactive: 0.666%; that for `CN(C)C1(CNC(=O)c2ccc(S(C)(=O)=O)cc2)CCCCC1` was inactive: 2.04%; that for `CC1CCC(C(C)C)C(OP(=O)(Nc2ccccn2)c2ccccc2)C1` (stereo unspecified) was inactive: 1.59%.
The value for `Cc1ccc(C(=O)OC2CN3CCC2CC3)cc1` (stereo unspecified) was inactive: -1.05%.
The value for `Cc1nn(-c2ccccc2)c2c1P(=O)(N1CCOCC1)N(C)C(c1ccccc1)=N2` (stereo unspecified) was inactive: 1.63%.
Take `O=P1(Nc2ccc(Br)cn2)COc2ccccc2OC1`: the inhibition is inactive: 1.27%.
As to `NS(=O)(=O)c1cccc(NC(=O)COC(=O)C(O)(c2ccccc2)c2ccccc2)c1`, the inhibition is inactive: -1.03%.
The value for `O=[As](O)(c1cccs1)c1cccs1` was inactive: 4.26%.
Turning to `Cc1ccc(OCC(=O)OC2CN3CCC2CC3)cc1` (stereo unspecified), the inhibition was inactive: 3.5%.
The value for `Nc1cccc([As](=O)(O)c2ccccc2)c1` was inactive: 4.09%; that for `O=P1(Nc2ncccn2)COc2ccccc2OC1` was inactive: -0.356%.
The value for `Cc1ccc(S(=O)(=O)N(CCCN)CCCc2c(C)nc(N)[nH]c2=O)cc1` was inactive: -0.309%; that for `CC(C)(C)C(=O)NC(Sc1ncccn1)C(Cl)(Cl)Cl` (stereo unspecified) was inactive: 0.127%.
For `O=P1(N(CCCl)CCCl)NCCC(C(F)(F)F)O1` (stereo unspecified), the inhibition was inactive: -0.613%.
Consider `Clc1n[nH]nc1-c1nn[nH][15n]1`, for which the inhibition is inactive: -0.0744%.
On to `CN(CCCl)Cc1cc(Cl)c(NC2=NCCN2)c(Cl)c1`, for which the inhibition was inactive: -3.21%.
The value for `CCOP(=O)(Nc1ccc(C)cn1)OCC` was inactive: 1.59%; that for `CCOP(=O)(NC(=NC(C)c1ccccc1)NC(C)c1ccccc1)OCC` (stereo unspecified) was inactive: 0.464%.
The value for `O=P1(Nc2ccccn2)COc2ccccc2OC1` was inactive: 0.598%.
The value for `CCC1=CC2Cc3nc4ccc(Cl)cc4c(N)c3C(C1)C2` (stereo unspecified) was inactive: -3.01%.
Take `CC1(CBr)Cn2c(nc3ccccc3c2=O)S1` (stereo unspecified): the inhibition was inactive: -0.829%.
The value for `CC(C)/C=N\N=C(\N)N[N+](=O)[O-]` was inactive: 1.42%; that for `CN(C(=O)Cc1ccc(Cl)c(Cl)c1)[C@@H]1CCCC[C@H]1N1CCCC1` was inactive: -1.97%.
The value for `COc1ccccc1CNC(=O)COC(=O)C(O)(c1ccccc1)c1ccccc1` was inactive: 2.05%.

As usually defined, the inhibition is the drop in the measured response relative to a control, in per cent.

For the origin of these results see PubChem BioAssay AID624204 (Sanford-Burnham Center for Chemical Genomics, 2012).
